Test results as given in patent US20140112930A1 (published 2014).

Chains of the proteins cited; added tags and fusions are not shown. Chains listed by the source or under a name are the forms on record and can include a tag or linker.
Dimeric Mouse Ang-2FD conjugated to human IgG1, one chain, as listed by the source limits assumed: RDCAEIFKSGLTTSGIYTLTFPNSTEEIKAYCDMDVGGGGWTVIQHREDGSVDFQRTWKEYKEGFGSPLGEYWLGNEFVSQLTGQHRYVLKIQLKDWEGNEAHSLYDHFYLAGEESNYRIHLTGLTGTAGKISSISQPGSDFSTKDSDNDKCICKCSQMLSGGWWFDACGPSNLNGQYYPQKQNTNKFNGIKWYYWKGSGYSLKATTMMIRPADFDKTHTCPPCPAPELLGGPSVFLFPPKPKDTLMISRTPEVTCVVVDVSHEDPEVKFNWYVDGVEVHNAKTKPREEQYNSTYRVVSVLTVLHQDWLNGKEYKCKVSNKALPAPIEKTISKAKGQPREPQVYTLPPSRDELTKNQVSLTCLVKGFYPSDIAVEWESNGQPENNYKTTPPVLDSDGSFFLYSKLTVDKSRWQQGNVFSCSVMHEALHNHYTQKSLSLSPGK

Target: T1, Dimeric Mouse Ang-2FD conjugated to human IgG1 (mouse (Mus musculus); human)
T1 construct: also called Mouse Ang-2FD-hFc
Test: SPR, captured Ab, RT

B1: H1H744N (antibody, V domains shown)
VH: QVQLVQSGVEVKKPGASVKVSCKTSGYTFSNNGFSWVRQAPGQGLEWLGWISGYNGNTNYAQKFQGRVTMTTDTSTSTAYMELRTLRSDDTAVYYCARDQDYSNFHWLDPWGQGTLVTVAS
VL: DIQMTQSPSSVSASVGDRVIITCRASQGLSSWLAWYQQKPGTAPKLLIHSASSLQTGVPSRFSGSGSGTEFALTINSLQPEDFGTYYCQQANSFPLTFGGGTRVEIK
With B1 the Kd was 0.158 nM.
